The values below come from ChEMBL document CHEMBL1157629, “Acetylcholinesterase inhibitors from the toadstool Cortinarius infractus” (Bioorg Med Chem, 2010).

The chains behind the UniProt entries cited, without tags or fusion partners.
UniProt P81908, whole entry: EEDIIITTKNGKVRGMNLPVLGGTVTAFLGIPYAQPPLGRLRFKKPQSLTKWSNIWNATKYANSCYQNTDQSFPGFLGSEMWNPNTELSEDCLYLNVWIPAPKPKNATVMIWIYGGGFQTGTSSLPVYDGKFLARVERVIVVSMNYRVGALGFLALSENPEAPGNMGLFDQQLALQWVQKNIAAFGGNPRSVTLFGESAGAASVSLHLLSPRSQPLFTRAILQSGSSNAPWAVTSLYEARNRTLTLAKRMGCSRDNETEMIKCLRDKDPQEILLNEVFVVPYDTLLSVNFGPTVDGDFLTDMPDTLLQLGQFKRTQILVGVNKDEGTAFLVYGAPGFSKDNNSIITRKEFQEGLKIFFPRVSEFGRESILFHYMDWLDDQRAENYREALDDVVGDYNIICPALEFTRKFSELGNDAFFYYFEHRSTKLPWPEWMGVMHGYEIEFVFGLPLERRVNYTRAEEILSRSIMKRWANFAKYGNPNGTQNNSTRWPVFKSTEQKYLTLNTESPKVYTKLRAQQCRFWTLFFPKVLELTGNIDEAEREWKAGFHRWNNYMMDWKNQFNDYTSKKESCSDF

In one assay the target is T1, Acetylcholinesterase (Bos taurus, UniProt P23795).
T1 sequence (P23795 whole entry): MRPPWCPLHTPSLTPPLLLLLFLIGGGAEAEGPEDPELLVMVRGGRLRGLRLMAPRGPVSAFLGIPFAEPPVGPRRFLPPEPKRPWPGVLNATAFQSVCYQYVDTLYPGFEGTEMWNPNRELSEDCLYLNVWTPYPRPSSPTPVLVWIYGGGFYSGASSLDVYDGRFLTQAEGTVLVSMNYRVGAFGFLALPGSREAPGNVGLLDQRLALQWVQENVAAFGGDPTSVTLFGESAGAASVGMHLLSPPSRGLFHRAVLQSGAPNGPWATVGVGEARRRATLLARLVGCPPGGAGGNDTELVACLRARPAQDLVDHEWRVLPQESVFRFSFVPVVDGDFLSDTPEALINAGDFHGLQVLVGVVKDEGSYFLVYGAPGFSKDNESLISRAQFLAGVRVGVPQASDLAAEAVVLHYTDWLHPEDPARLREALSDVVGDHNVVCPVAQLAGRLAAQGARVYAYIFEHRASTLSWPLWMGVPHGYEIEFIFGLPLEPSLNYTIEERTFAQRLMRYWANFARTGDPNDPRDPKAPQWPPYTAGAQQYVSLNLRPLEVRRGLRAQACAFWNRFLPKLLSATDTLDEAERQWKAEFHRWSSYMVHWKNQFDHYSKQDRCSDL

The target in another assay is Cholinesterase (Equus caballus, UniProt P81908).

SMILES strings stand for the structures.

With `CNC(=O)Oc1ccc2c(c1)[C@]1(C)CCN(C)[C@@H]1N2C` [PHYSOSTIGMINE], the figures for the IC50 against Acetylcholinesterase and at Cholinesterase were 2580 nM and 1340 nM, respectively.

As usually defined, the IC50 is the concentration that inhibits the measured activity by half. Read a low IC50 as higher potency.
